Experiments:
[1] = Ratio of drug level in hippocampus to cerebellum in baboon at 4.43 mCi, iv; type: ADME, tissue-based; settings: papio anubis, in vivo
[2] = Ratio of drug level in thalamus to cerebellum in baboon at 4.43 mCi, iv; type: ADME, tissue-based; settings: papio anubis, in vivo
[3] = Ratio of drug level in occipital cortex to cerebellum in baboon at 4.43 mCi, iv; type: ADME, tissue-based; settings: papio anubis, in vivo
[4] = Ratio of drug level in cuadate putamen to cerebellum in baboon at 4.43 mCi, iv; type: ADME, tissue-based; settings: papio anubis, in vivo
[5] = Ratio of drug level in temporal cortex to cerebellum in baboon at 4.43 mCi, iv; type: ADME, tissue-based; settings: papio anubis, in vivo
[6] = Ratio of drug level in cingulate cortex to cerebellum in baboon at 4.43 mCi, iv; type: ADME, tissue-based; settings: papio anubis, in vivo
[7] = target: Alpha-2A adrenergic receptor (Homo sapiens, UniProt P08913); assay: Displacement of [3H]rauwolscine from adrenergic alpha2A receptor

Sequences of proteins named here, by UniProt entry; tags and fusion partners are left off.
UniProt P08913, whole entry: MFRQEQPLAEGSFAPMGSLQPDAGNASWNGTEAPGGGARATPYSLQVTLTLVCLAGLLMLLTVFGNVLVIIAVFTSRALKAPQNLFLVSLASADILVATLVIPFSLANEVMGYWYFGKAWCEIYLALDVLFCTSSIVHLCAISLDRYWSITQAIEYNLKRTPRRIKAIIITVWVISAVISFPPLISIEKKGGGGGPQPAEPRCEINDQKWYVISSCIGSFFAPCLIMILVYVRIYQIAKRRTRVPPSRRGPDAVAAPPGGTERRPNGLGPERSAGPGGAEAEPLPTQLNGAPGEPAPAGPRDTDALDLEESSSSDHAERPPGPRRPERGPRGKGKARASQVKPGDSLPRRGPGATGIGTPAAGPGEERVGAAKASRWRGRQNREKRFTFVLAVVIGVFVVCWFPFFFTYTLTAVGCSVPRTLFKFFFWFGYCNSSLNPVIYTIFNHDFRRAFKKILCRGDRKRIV

SMILES	Ratio [1]	Ratio [2]	Ratio [3]	Ratio [4]	Ratio [5]	Ratio [6]	Ki [7] [nM]
[11CH3]N1CC2C(=NO[C@H]2CN2CCN(C/C=C/c3ccccc3)CC2)c2ccccc21 (some centres not stated)	1.52	1.66	0.9	1.4	1.28	1.34	–
CN1CC2C(=NO[C@H]2CN2CCN(C/C=C/c3ccccc3)CC2)c2ccccc21 (some centres not stated)	–	–	–	–	–	–	1.6

Reference: ChEMBL document CHEMBL1158639, “Synthesis and in vivo evaluation of [11C]MPTQ: a potential PET tracer for alpha2A-adrenergic receptors” (Bioorg Med Chem Lett, 2010)
